The experiment deals with μ, δ, κ opioid receptors. Briefly: Binding selectivity μ/δ/κ from Ki values. The note with it: ratio of Ki values, lowest set to 1.

For `Oc1ccc2c(c1)[C@@]13CCCC[C@H]1[C@@H](C2)N(CC1CCC1)CC3` [3a, butorphan], the “Selectivity μ/δ/κ” value was 3/75/1.

Turning to `CN1CC[C@]23CCCC[C@H]2[C@H]1Cc1ccc(O)cc13` [compound 1, levorphanol], the “Selectivity μ/δ/κ” value is on record as 1/20/11.

The record behind these values is article PMC2745115 (Bioorganic & medicinal chemistry letters, 2008).
